{
  "source": "patent US20190358302A1",
  "about": "(AMICUS THERAPEUTICS, published 2019)",
  "biological_target": "cation independent mannose-6-phosphate receptor (CIMPR)",
  "assay": "method not stated",
  "data": [
    {"binder": "rhα-Gal A as described herein (clone or preparation not specified) (enzyme, N-linked glycans (mono-M6P, bis-M6P, sialylated, neutral), typically at Asn-108, Asn-161 and Asn-184 of SEQ ID NO: 2) LDNGLARTPTMGWLHWERFMCNLDCQEEPDSCISEKLFMEMAELMVSEGWKDAGYEYLCIDDCWMAPQRDSEGRLQADPQRFPHGIRQLANYVHSKGLKLGIYADVGNKTCAGFPGSFGYYDIDAQTFADWGVDLLKFDGCYCDSLENLADGYKHMSLALNRTGRSIVYSCEWPLYMWPFQKPNYTEIRQYCNHWRNFADIDDSWKSIKSILDWTSFNQERIVDVAGPGGWNDPDMLVIGNFGLSWNQQVTQMALWAIMAAPLFMSNDLRHISPQAKALLQDKDVIAINQDPLGKQGYQLRQGDNFEVWERPLSGLAWAVAMINRQEIGGPRSYTIAVASLGKGVACNPACFITQLLPVKRKLGFYEWTSRLRSHINPTGTVLLQLENTMQMSLKDLL", "values": [
      {"measurement": "Kd", "result": "~3", "unit": "nM"}
    ]}
  ]
}
